This is a selection; strong and weak results do not stand in their true shares. Results filed as inconclusive are left out. Active and inactive are the calls of the source. Calls come from the whole dose curve; as a rule, active = well fitted curve in the direction sought with a large enough effect; inconclusive = small, poorly fitted or top-dose-only effect, or effect the other way, or another doubt; inactive = no such curve, though single readings can be large or run the other way.

The test in a line: Confirmation Concentration-Response Assay for Agonists of the Thyroid Stimulating Hormone Receptor: Activators of Intracellular cAMP Concentrations in Parental HEK 293. The following applies: parental HEK293 CNG biosensor, cAMP membrane potential fluorescence; at 32.9 µM (top of the series). From the text:
NIH Chemical Genomics Center [NCGC] NIH Molecular Libraries Screening Centers Network [MLSCN] MLSCN Grant: 1 X01 MH080680-01 PI Name: Dr. Marvin Gershengorn NCGC Assay Overview: This cell based assay utilized a cyclic nucleotide gated ion channel (CNG) as a biosensor for cAMP induction. HEK 293 cells stably expressing the modified CNG were purchased from BD biosciences (http://www.atto.com/products/actone/features_benefits.shtml) . Stimulation of cAMP production causes the CNG to open and subsequent membrane depolarization to occur. A fluorescent membrane potential dye (BD biosciences) was utilized to detect cAMP stimulation in cells. The cells were maintained in DMEM medium (Invitrogen) containing 10 % FBS (Hyclone), 100 units/ml Penicillin, 100 ug/ml Streptomycin (Invitrogen), and 250 ug/ml Geneticin (Invitrogen) and 1 ug/ml Puromycin (Invitrogen) at 37C in 5% CO2. […]
NCGC Assay Protocol Summary: High Throughput Screening. […] 23 nl/well compound or control was then added to the assay plates, which were incubated for additional 30 min before reading a Envision fluorescence plate reader (Perkin Elmer) in bottom-read mode for fluorescence intensity (emission at 590 nm). Keywords: cAMP, CNG Ion Channel, quantitative high throughput screening, qHTS, HTS, probe identification, CNG, cAMP, cyclic nucleotide gated ion channel PubChem

For `Cc1nn(-c2ccccc2)c2c1P(=O)(N1CCOCC1)N(C)C(c1ccccc1)=N2` (stereo unspecified), the activity change, negative = inhibition is inactive: -3.63%.

The values are drawn from PubChem BioAssay AID953 (National Center for Advancing Translational Sciences (NCATS), 2007).
